The values below come from US10844092B2, “Peptide for promoting regeneration of dentin or dental pulp tissue” (HysensBio Co., Ltd., priority 2016, dated 2020).

What all share (assay type): in vivo, immunocompromised mice
For one test, the system named is odontoblasts. In words: Scanning electron microscopy of transplanted tissue, differentiation into odontoblasts. As to conditions: 12 weeks after transplantation, FIG. 8. As to the method:
A scanning electron microscope was used to examine whether the dental pulp cells included in the implant were differentiated into odontoblasts in the tissues removed in Example 3-4 (FIG. 8). In this regard, a tissue transplanted with an implant including none of the peptides of the present invention was used as a control group.
Briefly, each tissue was immersed and fixed in 2.5% glutaraldehyde/0.1 M cacodylate buffer for 30 minutes, and each fixed tissue was immersed and reacted in a cacodylate buffer containing 1% osmium tetroxide for 1 hour. After dehydration of the tissues in ethanol and drying, the dried tissues were coated with gold, and visualized under a scanning electron microscope (S-4700, HITACHI, Tokyo, Japan).

Another test has as its system BSP. The test is described as follows: Immunostaining of transplanted tissues for BSP. Here is the method:
(§1) To evaluate expression levels of DSP which is an odontoblast-specific differentiation marker gene and BSP which is an osteoblast-specific differentiation marker gene in each of the tissues removed in Example 3-1, immunostaining analysis was performed.
(§2) Briefly, the removed tissues were fixed in 4% paraformaldehyde, decalcified in 10% EDTA (pH 7.4), embedded in paraffin, and then immunostained with anti-DSP and anti-BSP antibodies at a dilution of 1:150 as primary antibodies, and reacted with biotin-labeled goat anti-rabbit IgG (Vector Labs) as secondary antibodies to determine DSP and BSP levels (FIG. 4). In this regard, the tissue transplanted with an implant including none of the peptides of the present invention was used as a control group.
(§3) Immunostaining analysis was performed in the same manner as in Example 3-3, except that the tissues removed in Example 3-4 were used instead of the tissues removed in Example 3-1 (FIG. 7). In this regard, a tissue transplanted with an implant including none of the peptides of the present invention was used as a control group.

A further test has as its system DSP. In words: Immunostaining of transplanted tissues for DSP. Here is the method:
as §1, §2, §3

Test [1] deals with dentin/dental pulp-like tissues. In words: Morphological (H-E) analysis of implants with dental pulp cells and HA/TCP transplanted subcutaneously. As to the method: 100 mg of a dentin substitute was added to 2×10^6 of dental pulp cells, and mixed with 0.5% fibrin gel to prepare an implant. In this regard, hydroxy apatite/tricalcium phosphate (HA/TCP) ceramic powder (Zimmer, USA) was used as the dentin substitute, and the fibrin gel was prepared by including 10 μg of the peptide of Group 11 (SEQ ID NO: 87), the peptide of Group 12 (SEQ ID NO: 96), or 2 μg of BMP-2. The prepared implant was transplanted into the subcutaneous tissues of immunocompromised mice (NIH-bg-nu-xid; Harlan Laboratories, Indianapolis, Ind.), and the mice were raised for 6 weeks. Then, dentin/dental pulp-like tissues formed from the implants were removed. The removed tissues were fixed in 4% paraformaldehyde, decalcified in 10% EDTA (pH 7.4), embedded in paraffin, and stained with hematoxylin-eosin (H-E) (Vector Labs) to evaluate levels of the dentin/dental pulp-like tissues (FIG. 2). In this regard, an implant including none of the peptides of the present invention was used as a control group.
The levels of dentin/dental pulp-like tissues were evaluated in the same manner as in Example 3-1, except implant-transplanted mice were raised for 12 weeks (FIG. 5).

Where [2] appears, read: 6 weeks after transplantation, FIG. 4.
Where [3] appears, read: 12 weeks after transplantation, FIG. 7.

For “rhBMP-2: component of the comparative implant with dental pulp cells and HA/TCP, 2 μg in fibrin gel”, the “cells observed at the formed hard tissue (scanning electron microscope)” value in the test on odontoblasts is on record as “cuboidal cells attached to the surface of the formed hard tissue were observed”. Besides, the BSP expression level entry in the test on BSP (setting [2]) and with BSP (setting [3]) was “relatively very high BSP expression level” each time. Also, the results for the DSP expression level entry with DSP (setting [2]) and in the test on DSP (setting [3]) were “little DSP expression” and “low DSP expression levels”, respectively. Moreover, the “tissue generated at periphery of HA/TCP particles (H-E)” value in test [1] (6 weeks after transplantation, 10 μg peptide or 2 μg BMP-2 in fibrin gel, FIG. 2) was “generation of bone-like mineralized tissue and bone marrow-like tissue was observed”; in test [1] (12 weeks after transplantation, FIG. 5) it was “generation of the bone-like tissue and bone marrow-like tissue having cells entrapped inside the matrix was observed”.
